This is a sample that favours compounds with a hit; in the whole collection about 16% have one here.
TDP1 cell CPT: DT40-hTDP1 cell growth loss with CPT. chicken DT40 Tdp1-/-;hTDP1 cells + 20 nM CPT, ATP luminescence, 48 h. Potency, µM (doses to about 46.2 µM), for the others: at the top dose activity change, negative = growth inhibition, most hits filed as inhibitors. 420,000 compounds, 12% hits. AID 686979; note: potency is the fitted concentration of half-maximal effect; % is set by controls: 0 for no effect and ±100 for the full control effect; nearly all actives have a fitted effect of over 55% in size
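Chicken DT40 Tdp1-/- cells complemented with human TDP1, 400 cells/well, exposed to compounds plus 20 nM camptothecin for at least 48 h at 37 C; viability read as ATP content by CellTiter-Glo luminescence.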
uPA surface inh: inhibitors of cell surface uPA generation; Potency, µM (highest dose often 38.3 µM), for inactives: at the highest dose activity change, negative = inhibition, most hits filed as inhibitors; 330,000 compounds, 0.31% hits; cell surface uPA generation assay, qHTS; active = well fitted inhibition curve with a large enough effect; inconclusive = small, poorly fitted or top-dose-only effect; inactive = no such curve, though single readings can be large or run the other way; tested in mouse RAW 264.7 cells; note: potency is the fitted concentration of half-maximal effect; % is set by controls: 0 for no effect and ±100 for the full control effect; nearly all actives have a fitted effect of over 55% in size
DT40 TDP1 no CPT: qHTS for Inhibitors of human tyrosyl-DNA phosphodiesterase 1 (TDP1): qHTS in cells in absence of CPT; 420,000 compounds, 15% hits; DT40 Tdp1-/- hTDP1 cells, no CPT, ATP luminescence, 48 h; Potency, µM (titrated, usually from 46.2 µM), inactives show at the highest dose activity change, negative = growth inhibition, usual class: inhibitors; note: potency is the fitted concentration of half-maximal effect; % is set by controls: 0 for no effect and ±100 for the full control effect; nearly all actives have a fitted effect of over 55% in size
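A cellular qHTS used chicken DT40 cells lacking endogenous Tdp1 but carrying stably transfected human TDP1. Compounds were applied without camptothecin, and cell growth kinetics were judged by ATP-dependent luminescence after ≥48 hr.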
TDP1 inh: blocks human tyrosyl-DNA phosphodiesterase 1; Q9NUW8; recombinant TDP1, AlphaScreen DNA substrate cleavage; Potency, µM (doses to about 130 µM), for the others: at the top dose activity change, negative = inhibition, actives largely listed as inhibitors; 350,000 compounds, 0.28% hits; note: potency is the fitted concentration of half-maximal effect; % is set by controls: 0 for no effect and ±100 for the full control effect; nearly all actives have a fitted effect of over 40% in size
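Enzyme-compound mixtures sat 15 min at room temperature, followed by a 5 min reaction with 15 nM final substrate and 10 min with AlphaScreen beads. Recombinant human Tdp1 was used at 1 nM final.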
miR-21 FLuc: raises the signal of a miR-21 reporter | HeLa miR-21 FLuc reporter, luciferase, 48 h | Potency, µM (doses to about 38.3 µM), without a hit: at the top dose reporter change, positive = more light | 340,000 tested, under 10 active | AID 2288; active = well fitted rising curve with a large enough effect; inconclusive = small, poorly fitted or top-dose-only effect; inactive = no such curve, though single readings can be large or run the other way;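 note: % of control where 0% means no effect; miR-21 action dims this reporter so a rising signal means less miR-21 action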
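Compounds were titrated across several concentrations (up to approximately 40 uM) and incubated 48 hours with HeLa miR-21-FLuc reporter cells (miR-21 target sequence downstream of FLuc, endogenous miR-21). Readout was firefly luciferase luminescence after lytic detection reagent.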
* hit, by the source's call; ? = inconclusive; . = not tested or not shown; [ ] = dose if it differs, or a comment. Unless noted, calls come from the whole dose curve; as a rule, active = well fitted curve in the direction sought with a large enough effect; inconclusive = small, poorly fitted or top-dose-only effect, or another doubt; inactive = no such curve, though single readings can be large; an effect the other way counts as inactive or inconclusive.

Results follow in this order: TDP1 cell CPT, uPA surface inh, DT40 TDP1 no CPT, TDP1 inh, miR-21 FLuc
> CCCC1CC(C)(c2csc(Nc3ccc(OCC)cc3)n2)OC1=O (stereo not drawn)
 : 13µM*, ?, 15µM*, 10%, 17%
> CC1CCN(S(=O)(=O)c2ccc3c(c2)c(=O)c(C(=O)NCc2cccs2)cn3C)CC1
 : ?, 1%, ?, 0%, -7%
> Cn1cc(C(=O)NCCc2ccc(Cl)cc2)c(=O)c2cc(S(=O)(=O)N3CCOCC3)ccc21
 : -14%, ., 0%, 2%, -3%
> CCN(CC)S(=O)(=O)c1ccc2c(c1)c(=O)c(C(=O)NCc1ccc3c(c1)OCO3)cn2C
 : ., ., ., 0%, -9%
> CC1CCN(S(=O)(=O)c2ccc3c(c2)c(=O)c(C(=O)NCc2ccco2)cn3C)CC1
 : 21µM*, -3%, 21µM*, 5%, 0%
> Cn1cc(C(=O)O)c(=O)c2cc(S(=O)(=O)N3CCOCC3)ccc21
 : 16µM*, ., 23µM*, -3%, 0%
> CCN(CC)S(=O)(=O)c1ccc2c(c1)c(=O)c(C(=O)NCc1ccc(Cl)cc1)cn2C
 : 10µM*, ., 9.2µM*, 2%, -11%
> Cn1cc(C(=O)NCc2ccc(Cl)cc2)c(=O)c2cc(S(=O)(=O)N3CCCCCC3)ccc21
 : ?, ., 16µM*, 2%, -4%
> COc1ccc(-c2c(C(=O)O)nc3ccccc3c2C(=O)O)cc1
 : 0%, ., -22%, -4%, -8%
> O=C(COc1cc2oc(=O)c3c(c2cc1Cl)CCC3)NCCCn1ccnc1
 : -13%, -15%, ?, 1%, -8%

Quoted at random: 2 entries already listed.
Results follow in this order: TDP1 cell CPT, uPA surface inh, DT40 TDP1 no CPT, TDP1 inh, miR-21 FLuc
> CC1CCN(S(=O)(=O)c2ccc3c(c2)c(=O)c(C(=O)NCc2ccco2)cn3C)CC1
 : 21µM*, -3%, 21µM*, 5%, 0%
> Cn1cc(C(=O)NCc2ccc(Cl)cc2)c(=O)c2cc(S(=O)(=O)N3CCCCCC3)ccc21
 : ?, ., 16µM*, 2%, -4%

Remaining list, next part.
Results follow in this order: TDP1 cell CPT, uPA surface inh, DT40 TDP1 no CPT, TDP1 inh, miR-21 FLuc
> O=C(CCN1C(=O)/C(=C/c2ccccc2)SC1=S)N1CCCCCC1
 : 12µM*, -1%, 21µM*, ., 0%
> O=C(CCN1C(=O)/C(=C\c2ccccc2F)SC1=S)N1CCCCC1
 : 3.7µM*, -7%, 2.9µM*, 7%, -2%
> O=C(CCN1C(=O)/C(=C\c2ccccc2Cl)SC1=S)N1CCN(c2ccccc2)CC1
 : 16µM*, -1%, 10µM*, 6%, 0%
> O=C(CCN1C(=O)/C(=C\c2ccccc2)SC1=S)Nc1ccc(C(=O)O)cc1
 : 7%, 2%, -2%, ., -1%
> O=C(CCN1C(=O)/C(=C/c2ccccc2Cl)SC1=S)NC1=NCCS1
 : 4%, -1%, ?, 9%, 0%
> O=C(CN1C(=O)/C(=C/c2cccc(Br)c2)SC1=S)N1CCCC1
 : 3.3µM*, 3%, 9.2µM*, 3%, 2%
> O=C(CN1C(=O)/C(=C/c2cccc(Br)c2)SC1=S)NC1=NCCS1
 : 19%, 2%, -18%, 0%, 3%
> COc1ccc(S(=O)(=O)N2Cc3ccccc3CC2C(=O)Nc2ccc3c(c2)OCO3)cc1 (stereo not drawn)
 : -18%, 9%, ?, 7%, -30%
> Cc1nn(C)c(C)c1/C=C/C(=O)c1ccc(Cl)cc1Cl
 : 8.2µM*, -6%, 13µM*, 6%, 8%
> COC(=O)[C@@H]1Cc2c([nH]c3ccccc23)C(C)(C)N1C(=O)CCl
 : 18µM*, -14%, 23µM*, ., ?
> COC(=O)C1Cc2c([nH]c3ccccc23)C2CCC(=O)N12 (stereo not drawn)
 : 3%, ., 2%, ., .
> Cc1ccc(NC(=O)Cn2c(=O)n(CCC(=O)NCc3ccccc3Cl)c(=O)c3ccccc32)c(C)c1
 : -6%, ., -1%, -4%, 6%
> CC(=O)OC1C(N2CCCCC2)c2c(ccc(/C=C/C(=O)N3CCCCC3)c2O)OC1(C)C (stereo not drawn)
 : -28%, 2%, ?, 0%, -18%
> COc1ccc(-c2cc(CCCC(=O)NCc3ccccn3)no2)cc1
 : ?, ?, 16µM*, 2%, -18%
> CCOc1ccc(-c2cc(CCCC(=O)NCc3cccnc3)no2)cc1
 : 23µM*, ?, 21µM*, 3%, 6%
> Cc1cc(C)cc(N(CCC#N)C(=O)COC(=O)CCc2c[nH]c3ccccc23)c1
 : -18%, -1%, -2%, 6%, .
> COCCN(CC(=O)Nc1cccc(C)c1C)C(=O)Cn1c(=O)cnc2ccccc21
 : 8%, -1%, 6%, 0%, .
> CN(C)c1ccc(N/C=C/C(=O)C(C)(C)C)cc1
 : 18µM*, -5%, ?, 9%, -28%
> CN(C)c1ccc(N/C=C/C(=O)c2ccccc2)cc1
 : 11µM*, ., 11µM*, 11%, -59%
> O=C(/C=C/Nc1ccccc1)c1ccccc1
 : -25%, -11%, -6%, -4%, -43%

Looked up above.
COc1ccc(-c2cc(CCCC(=O)NCc3ccccn3)no2)cc1 | TDP1 inh = 2%
Cc1ccc(NC(=O)Cn2c(=O)n(CCC(=O)NCc3ccccc3Cl)c(=O)c3ccccc32)c(C)c1 | DT40 TDP1 no CPT = -1%

(listing goes on)
Results follow in this order: TDP1 cell CPT, uPA surface inh, DT40 TDP1 no CPT, TDP1 inh, miR-21 FLuc
> CC(C)(C)C(=O)/C=C/Nc1ccccc1O
 : 12µM*, ., 13µM*, 4%, 0%
> CC(Sc1nnc(-c2ccco2)n1N)C(=O)NCC1CCCO1 (stereo not drawn)
 : 9%, 12%, 21%, 1%, .
> CC1CCN(Cc2c(C(=O)N3CCc4ccccc4C3)nc3ccc(Cl)cn23)CC1
 : 21µM*, 2%, ?, 5%, -3%
> Cc1c(-c2nsc(NC(=O)c3ccc(Cl)cc3)n2)nnn1-c1ccc(C(C)C)cc1
 : 10µM*, ., 9.2µM*, 5%, -13%
> Cc1cccc(C(=O)Nc2nc(-c3nnn(-c4cc(F)ccc4F)c3C)ns2)c1
 : ?, ., ?, 3%, -1%
> COc1ccc(C(=O)Nc2nc(-c3nnn(-c4ccc(F)cc4F)c3C)ns2)cc1
 : 15µM*, ., 13µM*, 0%, 1%
> COC(=O)c1ccc(-n2nnc(-c3nsc(NC(=O)c4ccc(Cl)cc4)n3)c2C)cc1
 : -18%, ., -4%, -1%, -15%
> CCOC(=O)c1cnc2ccc(C(=O)OC)cc2c1Nc1ccc(OCc2ccccc2Cl)cc1
 : -12%, ., ?, ., 1%
> CCOC(=O)c1cnc2c(ccc3ccccc32)c1Nc1ccc(Cl)cc1
 : -16%, ., -24%, -1%[2.28 µM], 3%
> CCOC(=O)c1cnc2ccc(C)cc2c1Nc1ccc(OCc2ccccc2Cl)cc1
 : ?, ., 23µM*, ., 13%
> CCOC(=O)c1ccc2ncc(C(=O)OCC)c(Nc3ccc(C)c(Br)c3)c2c1
 : ., ., ., ., -14%
> CCOC(=O)c1cnc2c(ccc3ccccc32)c1Nc1ccc(OC)c(OC)c1
 : 4.6µM*, ., 4.6µM*, ., 22%
> CCOC(=O)c1cnc2ccccc2c1Nc1cccc(OC)c1
 : ?, ., 16µM*, 0%, 10%
> CCOC(=O)c1cnc2ccc(OC)cc2c1Nc1ccc(OCc2ccccc2Cl)cc1
 : 12µM*, ., 7.3µM*, -2%[12.3 µM], ?
> O=C(CN1C(=O)S/C(=C\c2cc(Cl)c(O)c(Cl)c2)C1=O)Nc1ccccc1
 : ?, -2%, ?, ., 1%
> O=C(N/N=C/c1ccccc1Cl)c1[nH]c2ccc(Br)cc2c1-c1ccccc1
 : 1.3µM*, -11%, 0.65µM*, 1%, 20%
> COc1ccc(/C=N/NC(=O)c2[nH]c3ccc(Br)cc3c2-c2ccccc2)cc1
 : 0.82µM*, -5%, 0.92µM*, 8%, 25%

An excerpt of these results, field by field.
> CN(C)c1ccc(N/C=C/C(=O)C(C)(C)C)cc1
  TDP1 cell CPT: 18µM* | uPA surface inh: -5% | DT40 TDP1 no CPT: ? | TDP1 inh: 9% | miR-21 FLuc: -28%

> CN(C)c1ccc(N/C=C/C(=O)c2ccccc2)cc1
  TDP1 cell CPT: 11µM* | uPA surface inh: . | DT40 TDP1 no CPT: 11µM* | TDP1 inh: 11% | miR-21 FLuc: -59%

Source: PubChem
